From publication PMC9511493, “2-(Fluoromethoxy)-4′-(S-methanesulfonimidoyl)-1,1′-biphenyl (UCM-1306), an Orally Bioavailable Positive Allosteric Modulator of the Human Dopamine D1 Receptor for Parkinson’s Disease” (Journal of Medicinal Chemistry, 2022)

Chains of the proteins cited; added tags and fusions are not shown. Lines headed by an entry give the natural chain unless they say otherwise; changes in a name come on top.
UniProt P21728, whole entry: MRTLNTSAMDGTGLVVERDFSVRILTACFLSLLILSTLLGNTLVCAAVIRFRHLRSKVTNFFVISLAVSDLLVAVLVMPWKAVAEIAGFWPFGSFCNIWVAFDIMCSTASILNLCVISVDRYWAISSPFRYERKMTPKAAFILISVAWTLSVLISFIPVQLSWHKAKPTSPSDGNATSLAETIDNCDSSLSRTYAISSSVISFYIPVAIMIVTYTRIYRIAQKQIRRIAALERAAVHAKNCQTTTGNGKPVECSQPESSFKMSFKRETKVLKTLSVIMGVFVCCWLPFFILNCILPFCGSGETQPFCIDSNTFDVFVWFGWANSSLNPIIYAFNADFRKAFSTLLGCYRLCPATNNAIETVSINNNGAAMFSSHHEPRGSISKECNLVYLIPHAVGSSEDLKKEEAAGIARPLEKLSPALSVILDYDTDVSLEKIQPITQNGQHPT

Legend:
human D1R = target: T1, human D1R (Homo sapiens, UniProt P21728); assay: potentiator-mode cAMP assay (HTRF) in SK-N-MC neuroblastoma cells endogenously expressing human D1R; format: cell-based; details: concentration–response curve of the compound over DA EC70
T1 construct: endogenously expressed human D1R in the SK-N-MC cell line (ATCC); host or cells: SK-N-MC human neuroblastoma cells
Experimental: An in-house chemical library of 250 compounds was screened using an in vitro assay measuring accumulation of cAMP in a human neuroblastoma SK-N-MC cell line stably expressing physiological levels of the D1R but not the D5R.[41] To assess allosteric modulation of the D1R, cells were treated with a fixed concentration of the test compounds (10 μM) for 15 min and then co-incubated with increasing concentrations of the endogenous agonist DA. The cAMP concentration was quantified by homogeneous time-resolved fluorescence energy transfer (HTRF) and the effect of each compound on the DA concentration–response curve was measured. […]
Potential PAM activities of synthesized compounds 1–10 were tested in the potentiator-mode cAMP production assay, and the results of D1R activation are summarized in Table 1. […] The PAM efficacy was measured as the percentage of increase over DA EC70 and the potency as the EC50 observed in the concentration–response curve. […]
Functional studies at human D1 and D2 receptors were carried out in endogenously expressed human D1R in the SK-N-MC cell line (ATCC), and recombinant human D2R stably transfected in an in-house CHO cell line. […] Next, treated cells were lysed (for the D2R assay, cells were previously treated with 10 μM forskolin for 5 min at 37 °C) and the cAMP concentration was measured by HTRF, using a kit from Cisbio. […]

human dopamine D1R = target: T2, human dopamine D1R (Homo sapiens, UniProt P21728); assay: radioligand binding assay with [3H]SCH23390 at human D1R membranes; details: in the presence of 4 μM DA
T2 construct: purchased Perkin Elmer
Experimental: Binding assays were carried out by using plasma membranes (12 μg/well) expressing human dopamine D1R (Perkin Elmer). […] After this time, the well content was filtered through a Millipore manifold and membranes were washed four times with assay buffer. The plate was dried and radioactivity was measured in a Microbeta Trilux liquid scintillation reader (Perkin Elmer). Non-specific binding was determined in the presence of 1 μM (+)-butaclamol. Data were normalized to the percentage of specific binding and fitted to a 4-parameter logistic equation using with Prism v2.1 software (GraphPad Inc). For the calculation of the affinity ratio of DA in the presence of the allosteric modulators, data were fitted according to the equations reported by Lazareno and Birdsall.[44]

O=Cc1ccc(-c2ccccc2OCF)cc1 [Compound 3, 2′-(Fluoromethoxy)[1,1′-biphenyl]-4-carbaldehyde]
Emax (human D1R; SK-N-MC, read-out: % maximum increase (efficacy over DA EC70)): 91% | % maximum increase (efficacy over DA EC70) (human D1R): 91 ± 6% | affinity ratio of [3H]SCH-23390 (human dopamine D1R): concentration-dependent effect of compound 3 by increasing the affinity ratio values
